The assay addresses T1, Interstitial collagenase (Homo sapiens, UniProt P03956).
T1 sequence (P03956 whole entry): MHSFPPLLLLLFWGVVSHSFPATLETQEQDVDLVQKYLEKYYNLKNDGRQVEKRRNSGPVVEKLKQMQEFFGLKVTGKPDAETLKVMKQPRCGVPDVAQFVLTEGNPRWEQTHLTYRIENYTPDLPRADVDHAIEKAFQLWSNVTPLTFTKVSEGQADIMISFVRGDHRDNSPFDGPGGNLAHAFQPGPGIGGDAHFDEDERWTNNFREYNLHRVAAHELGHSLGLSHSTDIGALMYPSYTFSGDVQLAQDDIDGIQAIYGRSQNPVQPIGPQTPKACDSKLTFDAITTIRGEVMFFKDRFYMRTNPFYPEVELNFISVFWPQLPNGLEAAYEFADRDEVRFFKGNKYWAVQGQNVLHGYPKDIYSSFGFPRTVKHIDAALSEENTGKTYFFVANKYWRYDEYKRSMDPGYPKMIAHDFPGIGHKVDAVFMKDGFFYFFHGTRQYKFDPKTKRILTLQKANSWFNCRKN
Kind of assay: Inhibition of Matrix metalloprotease-1.

Molecules are shown by their SMILES.

Broadly, the Ki is a measure of affinity in units of concentration, obtained from inhibition or displacement. With `CNC(=O)CC[C@@H](N[C@@H](CCc1ccccc1)C(=O)N[C@@H](CCCCNC(C)=O)C(=O)NC)C(=O)O`, the Ki came out at 2860 nM.
In turn, `CNC(=O)[C@@H]1CCCCNC(=O)CC[C@H](C(=O)O)N[C@@H](CCc2ccccc2)C(=O)N1` came in with a Ki of 2500 nM.

(Values after ChEMBL document CHEMBL1131225, “Macrocyclic amino carboxylates as selective MMP-8 inhibitors” (J Med Chem, 1998).)
